Results: PubChem BioAssay AID1347120 (National Center for Advancing Translational Sciences (NCATS), 2019)
“And” between values parts separate entries of the source, which are not always exact repeats. Equal values may be shown once. This is a selection; strong and weak results do not stand in their true shares. Some results for these compounds are left out of this collection, so the calls shown say nothing about other tests. Inconclusive results are not listed. The source made the active and inactive calls. The call rests on the fitted dose curve; in most records, active means well fitted activation curve with a large enough effect; inconclusive means small, poorly fitted or top-dose-only effect; inactive means no such curve, though single readings can be large or run the other way.

assay: qHTS for Suppressors of FUS Proteinopathy: Primary screen using FUS-linked yeast assay;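 further: plate controls were DMSO vehicle for no effect and reference control for full effect; nearly all actives have a fitted effect of over 55% in size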; details: S. cerevisiae FUS-expressing, OD600, 24 h; at 76.6 µM (top of the series)
Text: Several widespread neurodegenerative diseases, including Alzheimer disease, Huntington disease, Frontotemporal Lobar Degeneration (FTLD) and Amyotrophic Lateral Sclerosis (ALS), share a common pathological feature, namely accumulation of specific protein aggregates in diseased tissue. These diseases which is associated with protein misfolding (proteinopathies) have become increasingly problematic as the population ages and life expectancies are extended. Most proteinopathies are currently incurable, a situation confounded by the fact that the basis of neurodegeneration is generally poorly understood. There exists urgent and significant need to find therapeutics that can inhibit the toxicity associated with protein aggregation. A novel approach to understand the underlying mechanisms of neurodegenerative diseases has recently emerged in which the disease conditions are modeled in the yeast (Saccharomyces cerevisiae), a tractable eukaryotic organism with conserved protein quality control mechanisms. Yeast offers quick and reliable genetic manipulations and can be easily tailored to high-throughput screening (HTS).
For this project, a yeast model of the FUS proteinopathies (a spectrum of neurodegenerative diseases that include ALS and a subtype of FTLD) was generated and employed. The cytoplasmic accumulation of the DNA/RNA-binding protein FUS (also known as TLS) is causative to both familial and sporadic forms of ALS and FTLD. This yeast model recapitulates neuronal pathology by showing severe cytotoxicity associated with cytoplasmic accumulation of FUS aggregates and a specific interaction between FUS and TDP-43, another ALS-associated protein. […] Specifically, the cellular accumulation of misfolded FUS that disrupts RNA homeostasis in both yeast and higher eukaryotes. This model was validated to be suitable for quantitative HTS (qHTS) use for finding genetic or chemical factors that restore growth. […] Identified compounds that inhibits FUS-yeast toxicity is flagged, re-acquired, and validated for further investigation and optimization.
NIH Chemical Genomics Center [NCGC]
NIH Molecular Libraries Probe Production Centers Network [MLPCN]
Assay Submitter (PI): Frank Shewmaker PhD, Uniformed Services University of the Health Sciences
Compound CP55940 was used as the positive control. Column 1 was treated with CP55940 titration from 92uM (final concentration, 1:2 dilution), while Column 2 was treated with top dose 92uM. Columns 3 and 4 were treated with DMSO only as negative control to assess background and noise signal.
Four hundred fifty microliter of cultured yeast (in 20mL rich medium) provided by Dr. Shewmaker lab was incubated at 30C at 99% humidity for 3hr. The culture was then spun down at 4000rpm for 5min and the cell pellet was resuspended in 2mL of Sdmin Media + ALU(330) + 2.5% Raffinose. One hundred microliter of the suspension was added to 900uL of water and OD of the solution was obtained. Twenty mL of responding medium (provided by Shewmaker lab) + 2.5% raffinose was added to ensure cell density of 0.1; the solution was incubated overnight. Working cell solution (FUS-yeast in Sdmi + Sdmi + 1X ALU + 2% galactose media) was prepared (final OD at 0.005) and 3uL was dispensed in a 1536-well Aurora high based clear bottom assay plates. Controls and library compounds (at various final concentrations from 40uM to 0.32uM) were added using a 1536-well pin array using the Kalypsys pin-tool. The plates were then incubated for 24hrs in a cell-culture incubator (30C; 99% humidity). Absorbance at 600nm was then read using the PerkinElmer ViewLux plate reader.

SMILES	growth rescue (activation)
COc1ccc(Cl)cc1C(=O)NCC1(N(C)C)CCCCC1	inactive: 8.97%
COc1cccc(C(=O)NCC2(N3CCCCC3)CCCCC2)c1	inactive: 24.5%
COc1ccc(C(=O)NCC2(N(C)C)CCCCC2)cc1Cl	inactive: -16.5%
O=C(NCC1(N2CCCCC2)CCCCC1)c1cccc(Cl)c1	inactive: 2.74%
CN(C)C1(CNC(=O)c2ccc(Br)cc2)CCCCC1	inactive: 27.5%
COc1cc(C(=O)NCC2(N(C)C)CCCCC2)c([N+](=O)[O-])cc1OC	inactive: -21.8%
C=C(C)C#CC(O)(C(=O)OC1CCN(C)CC1)c1ccccc1 (stereo not given)	inactive: 16.8%
COc1ccc(Br)c(C(=O)NCC2(N3CCCCC3)CCCCC2)c1	inactive: -20.4%
COc1cc(C(=O)NCC2(N(C)C)CCCCC2)cc(OC)c1OC	inactive: -13.7%
Cc1cccc(C(=O)NCC2(N(C)C)CCCCC2)c1	inactive: -20.9%
O=C(OCCN1CCCC1)C(O)(c1ccccc1)c1ccccc1	inactive: -5.47%
CC(C)Oc1ccc(C(=O)NCC2(N(C)C)CCCCC2)cc1	inactive: -16.5% and inactive: 18.5%
CN(C)c1cccc(C(=O)NCC2(N(C)C)CCCCC2)c1	inactive: -10%
COc1cccc(C(=O)NCC2(N3CCOCC3)CCCCC2)c1	inactive: -23.7%
O=C(OC1CN2CCC1CC2)C(CO)(c1ccccc1)c1ccccc1 (stereo not given)	inactive: -11.9%
CC(C)COc1ccc(C(=O)NCC2(N(C)C)CCCCC2)cc1	inactive: -7.35%
COc1cc(SC)ccc1C(=O)NCC1(N(C)C)CCCCC1	inactive: -20.9%
CCN(CC)CC(C)C(C)OC(=O)C(O)(c1ccccc1)c1ccccc1 (stereo not given)	inactive: 19.8%

SMILES	growth rescue (activation)
CN(C)C1(CNC(=O)c2cccc(Cl)c2)CCCCC1	inactive: -16.8%
CC(C)N1C(=O)CC2(CCN(CCOC(=O)C(O)(c3ccccc3)c3ccccc3)CC2)C1=O	inactive: 4.06%
Cc1ccc(C(=O)NCC2(N3CCCCC3)CCCCC2)cc1	inactive: 17.1%
CN(C)C1(CNC(=O)c2ccccc2F)CCCCC1	inactive: -20.8%
O=C(NCC1(N2CCCCC2)CCCCC1)c1cc([N+](=O)[O-])ccc1Cl	inactive: 16%
CN1[C@@H]2CC[C@H]1CC(OC(=O)C(O)(c1ccccc1)c1ccccc1)C2 (stereo not given in full)	inactive: -4.72%
O=C(NCC1(N2CCCCC2)CCCCC1)c1cc(F)c(F)cc1Cl	inactive: 7.05%
C=CCN1CCN(CCOC(=O)C(O)(c2ccccc2)c2ccccc2)CC1	inactive: -32.2%
CCOc1cccc(C(=O)NCC2(N(C)C)CCCCC2)c1	inactive: -5.13%
COc1ccc(C(=O)NCC2(N(C)C)CCCCC2)cc1	inactive: -15.1%
O=C(NCC1(N2CCCCC2)CCCCC1)c1cccc(Br)c1	inactive: -2.81%
Cc1cc(C(=O)NCC2(N3CCCCC3)CCCCC2)ccc1[N+](=O)[O-]	inactive: -5.71%
CCN1CCCC(OC(=O)C2(O)c3ccccc3C=Cc3ccccc32)C1 (stereo not given)	inactive: 2.81%
CN(C)c1ccc(C(=O)NCC2(N(C)C)CCCCC2)cc1	inactive: 11%
CN(C)C1(CNC(=O)c2ccccc2[N+](=O)[O-])CCCCC1	inactive: -26.7%
Cc1ccccc1C(=O)NCC1(N2CCCCC2)CCCCC1	inactive: -38.9%
CCCCOc1ccccc1C(=O)NCC1(N(C)C)CCCCC1	inactive: -17.6%
